These results are taken from paper PMC3401275 (International Journal of Pharmaceutics, 2012).

The assay deals with T1, SMVT (Canis lupus familiaris, UniProt A0A8I3MY61).
T1 sequence (A0A8I3MY61 1-636): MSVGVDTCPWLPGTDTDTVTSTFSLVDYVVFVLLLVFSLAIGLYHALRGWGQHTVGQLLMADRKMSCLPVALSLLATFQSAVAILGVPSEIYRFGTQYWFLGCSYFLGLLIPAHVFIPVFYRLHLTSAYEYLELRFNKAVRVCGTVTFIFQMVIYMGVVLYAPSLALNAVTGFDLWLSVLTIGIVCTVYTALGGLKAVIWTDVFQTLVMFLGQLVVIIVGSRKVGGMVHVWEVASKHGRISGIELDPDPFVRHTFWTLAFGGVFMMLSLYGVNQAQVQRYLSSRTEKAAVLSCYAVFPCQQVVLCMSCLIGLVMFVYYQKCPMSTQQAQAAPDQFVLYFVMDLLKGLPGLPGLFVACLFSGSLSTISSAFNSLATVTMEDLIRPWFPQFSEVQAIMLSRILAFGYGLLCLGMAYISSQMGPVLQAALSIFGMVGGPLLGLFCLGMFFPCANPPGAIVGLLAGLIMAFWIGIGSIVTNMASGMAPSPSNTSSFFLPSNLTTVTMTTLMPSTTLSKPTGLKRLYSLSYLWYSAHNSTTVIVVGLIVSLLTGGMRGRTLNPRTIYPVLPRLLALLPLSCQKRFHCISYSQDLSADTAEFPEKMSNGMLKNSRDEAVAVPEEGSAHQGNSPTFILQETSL
Particulars: read-out: IC50 for inhibition of [3H] biotin uptake; MDCK-MDR1 cells, 0.1–100µM, 30 min.

The term IC50 denotes the point on the concentration scale where inhibition reaches its midpoint. On to `O=C(O)CCCC[C@@H]1SC[C@@H]2NC(=O)N[C@@H]21` [biotin, Biotin, reference compound], for which the IC50 worked out at 2930 ± 60 nM.
